Results: US10093654B2, “Therapeutically active compounds and their methods of use” (Agios Pharmaceuticals, Inc., priority 2013, dated 2018)

Test system: IDH2 (R140Q) in TF-1 cells
Experiment: Histone hypermethylation, Western blot, TF-1 IDH2 (R140Q) cells
Assay type: cell-based
Conditions: 7 days of treatment; read-out: IC50 for histone demethylation at H3K4me3

“2-Methyl-1-[(4-[6-(trifluoromethyl)pyridin-2-yl]-6-{[2-(trifluoromethyl)pyridin-4-yl]amino}-1,3,5-triazin-2-yl)amino]propan-2-ol methanesulfonate [compound 1]” was tested, and the IC50 was 0.236 µM.
